Experimental data: US20250340604A1, “BLOOD-BRAIN BARRIER TRANSLOCATING PEPTIDES AND RELATED MOLECULES AND METHODS OF USE THEREOF” (Enkefalos Biosciences, Inc., priority 2022, published 2025)

Conditions: monovalent trastuzumab knob-hole cyclotide fusions, 25 mg/kg, 24 hours, brain homogenate ELISA, versus trastuzumab alone; FIG. 9

## CYC17
  brain-specific delivery of trastuzumab (percents of injected dose per gram of brain): improved brain-specific delivery
